What was measured:
male CD-1 mice = assay: Hepatotoxicity in mice (serum ALT, H&E staining); format: in vivo, mouse; conditions: 100 and 150 mg/kg
[1] = tested on: pyrrole-protein adducts in rat liver; assay: Western blot of rat liver samples detected by antiserum II; format: in vivo; conditions: rats, retrorsine 280 mg/kg or G. segetum extract 192 mg/kg oral; especially bands at about 45 and 98 KD
Method: Male SD rats (body weight, 190-220 g) were supplied by the Laboratory Animal Services Centre at The Chinese University of Hong Kong. Animals were placed in a controlled environment (50% relative humidity, temperature of 25° C. and dark/light cycles) and allowed access to standard rat chow and water. Herbal extracts were prepared via extracting the powdered herbal samples with distilled water for three times followed by drying the combined water extracts under reduced pressure. The obtained residues were reconstituted into the aqueous sulfuric acid solution and extracted with hexane to remove non-alkaloid components. The aqueous layer was adjusted to pH 9-10 and then extracted with dichloromethane for three times. […] The total content of toxic pyrrolizidine alkaloids in the extracts was quantified by our previously developed HPLC analytical methods. […] Serum ALT (alanine aminotransferase) activities were measured following the Sigma's protocol. Liver histomorphology was assessed by standard hematoxylin-eosin (H&E) staining procedures.
In Western blot assay, rat liver lysates were loaded and resolved by 7.5% SDS-PAGE and then transferred to nitrocellulose membranes. […] After washing, protein bands were detected by chemiluminescence with an ECL detection kit. β-Actin served as internal standard. […] The pyrrole-protein adducts were determined by the antiserum II.

[2] = tested on: pyrrole-derived protein adducts in mouse liver; assay: Immunohistochemical staining of mouse liver with purified N-antibody; format: in vivo; conditions: 100 mg/kg
From the text: The immunochemihistological staining results further confirms that the purified N-antibody was specific to recognize the pyrrole moiety, especially the pyrrole-derived protein adducts with N-linkage.

[3] = tested on: pyrrole-protein adducts in mouse liver; assay: Western blot of mouse liver samples detected by antiserum II; format: in vivo; conditions: mice, 100 or 150 mg/kg; bands between 20-40 KDa, not in control mice
Method: The hepatotoxicity of pyrrolizidine alkaloids on mice was also assessed by antiserum II, using Western blot and competitive Western blot.

For retrorsine, the “liver H&E staining histomorphological assessment” value (male CD-1 mice) was “liver injury observed”, the “serum ALT” value (male CD-1 mice) was “significant serum ALT elevation” and the “pyrrole-protein adduct bands in liver samples” value [1] was “Several bands, which were not found in control rats, were detected”. For the same substance, the “liver injury in liver slice” value [2] was “liver injury was observed”, the “intensity of stained spots (pyrrole-derived protein adduction) versus control sample” value ([2]; purified N-antibody) was “intensity significantly higher” and the “protein bands in liver samples detected by antiserum II” value [3] was “some protein bands were detected”.

Reference: US9056916B2, “Method and assay kit for detection of toxicity induced by pyrrolizidine alkaloids” (priority 2012, dated 2015)
